Reference: ChEMBL document CHEMBL4680309, “Discovery of a potent β-catenin destabilizer for overcoming the resistance of 5-fluorouracil in colorectal cancer” (Bioorg Med Chem, 2021)

Legend:
Type in all cases: functional, cell-based
[1] = system: HCT-8; test: Cytotoxicity against human HCT-8 cells assessed as reduction in cell viability incubated for 72 hrs by SRB assay
[2] = system: HCT-116; test: Cytotoxicity against human HCT-116 cells assessed as reduction in cell viability incubated for 72 hrs by SRB assay
[3] = system: SW480; test: Cytotoxicity against human SW480 cells assessed as reduction in cell viability incubated for 72 hrs by SRB assay
[4] = system: RKOE6; test: Cytotoxicity against human RKOE6 cells assessed as reduction in cell viability incubated for 72 hrs by SRB assay
[5] = system: HT-29; test: Cytotoxicity against human HT-29 cells assessed as reduction in cell viability incubated for 72 hrs by SRB assay
[6] = system: LoVo; test: Cytotoxicity against human LoVo cells assessed as reduction in cell viability incubated for 72 hrs by SRB assay

Measured: inhibition

C=C1C(=O)O[C@@H]2CCCn3cccc3[C@@H]12
active: [1] Dose-dependent effect | [2] Dose-dependent effect | [3] Dose-dependent effect | [4] Dose-dependent effect | [5] Dose-dependent effect | [6] Dose-dependent effect
